Antibody variant affinities, Ab-14 light chain, assay 1

The measurements come from Engelhart et al. 2022 (doi:10.1038/s41597-022-01779-4) through the FLAb antibody collection.

The target is the same throughout: PDVDLGDISGINAS, from the HR2 region of SARS-CoV-2 spike.

Ab-14 is the parent antibody, in scFv form: VH, then three GGGGS repeats, then VL. The heavy chain is unchanged in all variants.
VH: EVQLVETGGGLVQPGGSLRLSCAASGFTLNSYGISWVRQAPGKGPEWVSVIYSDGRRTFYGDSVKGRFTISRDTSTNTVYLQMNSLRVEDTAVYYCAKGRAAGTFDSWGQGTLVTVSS
VL: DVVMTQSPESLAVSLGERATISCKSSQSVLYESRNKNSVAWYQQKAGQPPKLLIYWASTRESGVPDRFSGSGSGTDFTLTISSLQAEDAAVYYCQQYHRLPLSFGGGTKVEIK

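The starting antibody came from a phage panning campaign against this peptide. AAYL50 was designed without a model: most single CDR substitutions and a random sample of double and triple ones. The assay is AlphaSeq: two haploid yeast populations carry antibody and antigen on their surface. Pairs that bind mate more often; barcode pairs of the diploids are counted by sequencing. A regression on co-assayed BCL2-family reference pairs converts the normalised counts of each replicate to an apparent Kd. There are three technical replicates.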

Substitutions are numbered in sequence along the VL above, starting at 1 (not Kabat).
The read-out is the apparent dissociation constant on a log10 scale (nM): the lower, the stronger.
The mean shown is taken over the replicates in which the pair was detected.
A pair that was not seen in that replicate is written "ND"; this usually means weak binding, but a binder can also be missed.

changes | replicates, log10 nM | mean, log10 nM | signal with controls
S26D/S38N/H98C | 0.15 0.58 0.41 | 0.38 | 1 of 9 (2.86)
S28H/L30T/E32A | 1.26 1.44 1.67 | 1.46 | 2 of 9 (4.07)
A57E/T59S/Q95C | ND ND ND | ND | 0 of 9
S28Q/A57K/S62A | 2.07 2.55 2.57 | 2.40 | 4 of 9 (3.95)
V29S/S33H/P101Y | ND 5.03 ND | 5.03 | 1 of 9 (2.76)
S28G/V29F/K36W | 0.91 0.67 1.10 | 0.89 | 2 of 9 (3.95)
E32Q/S58W | 2.66 2.20 2.77 | 2.54 | 3 of 9 (3.93)
Q27H/E32T/R99V | 3.21 ND 2.36 | 2.79 | 0 of 9
Q27C/S28K/S33C | ND ND ND | ND | 0 of 9
S33R/K36S/V39M | 2.52 ND 3.72 | 3.12 | 0 of 9
S26T/P101T/S103L | 2.72 2.69 3.23 | 2.88 | 5 of 9 (4.52)
S25Y/S38E/P101A | ND 5.29 ND | 5.29 | 1 of 9 (3.68)
R60K/E61G/H98C | ND ND ND | ND | 1 of 9 (4.78)
A40S/A57R/R60Q | ND ND ND | ND | 1 of 9 (4.79)
A40W/A57F/S58K | ND ND ND | ND | 1 of 9 (3.49)
S33M/T59E/Y97T | 0.78 1.00 0.97 | 0.92 | 5 of 9 (4.65)
Y31F/K36I/Y97M | 3.59 4.30 5.75 | 4.55 | 2 of 9 (4.08)
N35M/A57M/Q95I | ND ND ND | ND | 0 of 9
A57V/Q96M/P101H | ND ND ND | ND | 0 of 9
E32A/S33H/Q95P | 1.83 1.73 1.97 | 1.84 | 3 of 9 (4.74)
S26G/V29I/V39Q | ND ND ND | ND | 2 of 9 (3.98)
A57T/T59L/Q95T | ND ND 5.15 | 5.15 | 0 of 9
A40G/R60T/Q95R | ND ND ND | ND | 0 of 9
A57W/Q96H/R99Q | ND 3.87 ND | 3.87 | 0 of 9
K24F/N37G/E61P | ND 3.24 5.72 | 4.48 | 0 of 9
K24Q/W56N/R99G | 0.33 0.61 0.51 | 0.49 | 8 of 9 (5.13)
S28Q/V39M/T59Q | ND ND ND | ND | 1 of 9 (3.63)
S26R/N37G/A40E | ND ND ND | ND | 0 of 9
L30R/E32C/R99E | 2.88 4.42 3.52 | 3.61 | 4 of 9 (5.02)
S25R/T59F/S62L | 3.84 ND 3.99 | 3.91 | 2 of 9 (4.36)
N37D/Q96D/P101V | ND ND ND | ND | 2 of 9 (3.55)
A40V/S58N/S62V | ND ND ND | ND | 1 of 9 (2.88)
Y31M/W56V/S62P | ND ND 1.11 | 1.11 | 0 of 9
Y31R/T59S/Y97H | ND ND 4.65 | 4.65 | 1 of 9 (4.94)
S25A/Q27R/V39N | ND 4.36 ND | 4.36 | 1 of 9 (3.88)
S33M/W56K/S103A | 0.56 0.84 0.76 | 0.72 | 7 of 9 (4.94)
S26V/N35F/R99A | 3.22 2.96 3.08 | 3.09 | 3 of 9 (3.91)
S28G/V39N/S62K | 3.76 4.98 ND | 4.37 | 1 of 9 (3.67)

Top 6 of the variants detected in all replicates, tightest first:

{"changes": "S26D/S38N/H98C", "replicates, log10 nM": "0.15 0.58 0.41", "mean, log10 nM": "0.38", "signal with controls": "1 of 9 (2.86)"}
{"changes": "K24Q/W56N/R99G", "replicates, log10 nM": "0.33 0.61 0.51", "mean, log10 nM": "0.49", "signal with controls": "8 of 9 (5.13)"}
{"changes": "S33M/W56K/S103A", "replicates, log10 nM": "0.56 0.84 0.76", "mean, log10 nM": "0.72", "signal with controls": "7 of 9 (4.94)"}
{"changes": "S28G/V29F/K36W", "replicates, log10 nM": "0.91 0.67 1.10", "mean, log10 nM": "0.89", "signal with controls": "2 of 9 (3.95)"}
{"changes": "S33M/T59E/Y97T", "replicates, log10 nM": "0.78 1.00 0.97", "mean, log10 nM": "0.92", "signal with controls": "5 of 9 (4.65)"}
{"changes": "S28H/L30T/E32A", "replicates, log10 nM": "1.26 1.44 1.67", "mean, log10 nM": "1.46", "signal with controls": "2 of 9 (4.07)"}

Background: pairings of library AAYL50 with three empty control strains gave a value in 18% of cases (median 4.19, 5th percentile 2.99). Values in that range, when seen in few replicates, are hard to tell from nonspecific mating. For each scFv, signals with the empty controls are counted beside the result, with their mean in brackets.
For reference, the parent read 0.65 as the reference entry and 1.68 as a member of this library.